Values quoted from earlier work, collected in patent US8927489B2, “Sustained release preparation of pro-insulin C-peptide” (Cebix Incorporated, priority 2005, dated 2015).

Conditions: cited from earlier work

insulin [reference compound]
in vivo half life circulating in blood: 4 to 5 min
